Biological target: T1, Epidermal Growth Factor Receptor (EGFR) Tyrosine Kinase (Homo sapiens, UniProt P00533)
T1 construct: purchased PanVera, Madison Wis; P2628
Experiment: EGFR kinase multiplex FP/TR-RET library screen and follow-up titration
Format: biochemical
Details: 10 μM library compound

- inhibition in library screen: strong inhibition
Structure (SMILES): COc1cc2ncnc(Nc3cccc(Cl)c3)c2cc1OC [Tyrophostin AG 1478, Tyrphostin AG1478]
